{"sequences": {"note": "Amino acid sequences for entries named in this document (tags omitted).", "UniProt P13569, whole entry N1303K": "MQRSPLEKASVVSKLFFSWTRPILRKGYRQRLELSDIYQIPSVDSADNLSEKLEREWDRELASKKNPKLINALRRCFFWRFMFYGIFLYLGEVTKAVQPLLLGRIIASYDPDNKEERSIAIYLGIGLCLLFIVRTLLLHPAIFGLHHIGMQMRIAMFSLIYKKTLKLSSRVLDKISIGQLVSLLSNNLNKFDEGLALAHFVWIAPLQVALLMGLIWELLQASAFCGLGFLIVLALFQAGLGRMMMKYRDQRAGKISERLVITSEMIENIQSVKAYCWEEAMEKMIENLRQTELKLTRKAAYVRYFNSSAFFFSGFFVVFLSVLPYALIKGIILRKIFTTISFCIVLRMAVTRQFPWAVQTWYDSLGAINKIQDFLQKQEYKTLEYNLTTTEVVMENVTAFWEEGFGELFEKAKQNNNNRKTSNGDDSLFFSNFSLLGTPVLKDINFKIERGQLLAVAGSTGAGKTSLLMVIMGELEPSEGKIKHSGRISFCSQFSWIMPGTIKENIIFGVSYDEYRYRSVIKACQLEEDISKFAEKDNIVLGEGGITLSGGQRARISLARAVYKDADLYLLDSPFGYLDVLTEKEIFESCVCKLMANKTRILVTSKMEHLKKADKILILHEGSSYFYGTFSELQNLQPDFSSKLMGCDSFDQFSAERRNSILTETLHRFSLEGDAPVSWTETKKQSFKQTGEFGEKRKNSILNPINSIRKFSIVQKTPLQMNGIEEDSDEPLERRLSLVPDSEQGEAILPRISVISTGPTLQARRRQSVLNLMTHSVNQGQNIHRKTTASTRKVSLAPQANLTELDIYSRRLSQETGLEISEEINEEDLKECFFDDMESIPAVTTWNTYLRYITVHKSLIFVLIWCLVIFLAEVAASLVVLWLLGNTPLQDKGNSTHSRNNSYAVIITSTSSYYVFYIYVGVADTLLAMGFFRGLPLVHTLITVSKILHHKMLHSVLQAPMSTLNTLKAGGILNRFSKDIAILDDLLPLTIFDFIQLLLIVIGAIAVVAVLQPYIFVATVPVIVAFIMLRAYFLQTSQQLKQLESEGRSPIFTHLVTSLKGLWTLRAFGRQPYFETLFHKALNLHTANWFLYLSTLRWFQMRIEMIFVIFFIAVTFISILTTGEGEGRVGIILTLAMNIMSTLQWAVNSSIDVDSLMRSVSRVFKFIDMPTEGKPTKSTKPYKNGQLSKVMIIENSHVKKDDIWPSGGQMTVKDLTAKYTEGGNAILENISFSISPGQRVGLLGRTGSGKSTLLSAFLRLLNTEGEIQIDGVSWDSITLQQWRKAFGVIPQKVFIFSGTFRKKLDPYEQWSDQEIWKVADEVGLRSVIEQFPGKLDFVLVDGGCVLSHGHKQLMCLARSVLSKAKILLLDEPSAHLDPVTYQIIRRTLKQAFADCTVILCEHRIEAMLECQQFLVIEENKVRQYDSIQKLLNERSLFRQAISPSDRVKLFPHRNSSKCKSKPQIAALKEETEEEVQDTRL"}, "source": "paper PMC6881293", "about": "“Nanomolar-potency ‘co-potentiator’ therapy for cystic fibrosis caused by a defined subset of minimal function CFTR mutants” (Scientific Reports, 2019)", "molecular_target": "N1303K-CFTR (Homo sapiens, UniProt P13569, N1303K)", "details": "16HBE-N1303Kge cells; 20 µM compound after 20 µM forskolin and 5 µM VX-770", "data": [{"molecule": "COc1ccc2cc3c(N)nn(C(=O)c4cc(-c5cccs5)nc5ccccc45)c3nc2c1", "values": [{"measurement": "CFTRinh-172-inhibitable short-circuit current response", "result": "~ 10 μA/cm^2"}]}]}
